The values that follow come from paper PMC11022895 (Drug Metabolism and Disposition, 2021).

Protein sequences, listed by entry. Tags and fused reporters are not part of them. Lines headed by an entry give the natural chain unless they say otherwise; changes in a name come on top.
UniProt P20813: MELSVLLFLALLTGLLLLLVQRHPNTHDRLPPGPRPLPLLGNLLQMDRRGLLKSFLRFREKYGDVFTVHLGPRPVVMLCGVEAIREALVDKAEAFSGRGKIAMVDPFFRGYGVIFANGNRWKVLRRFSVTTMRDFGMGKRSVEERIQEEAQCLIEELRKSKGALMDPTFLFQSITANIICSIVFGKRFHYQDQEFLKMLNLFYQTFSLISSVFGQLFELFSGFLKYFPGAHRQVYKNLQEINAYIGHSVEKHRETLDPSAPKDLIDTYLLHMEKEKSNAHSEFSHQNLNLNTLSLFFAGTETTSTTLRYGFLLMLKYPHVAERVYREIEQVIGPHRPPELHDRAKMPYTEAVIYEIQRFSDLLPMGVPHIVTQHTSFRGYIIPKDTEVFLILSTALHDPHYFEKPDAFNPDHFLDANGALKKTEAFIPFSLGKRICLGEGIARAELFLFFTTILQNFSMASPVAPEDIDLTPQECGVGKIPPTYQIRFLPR
UniProt P05181: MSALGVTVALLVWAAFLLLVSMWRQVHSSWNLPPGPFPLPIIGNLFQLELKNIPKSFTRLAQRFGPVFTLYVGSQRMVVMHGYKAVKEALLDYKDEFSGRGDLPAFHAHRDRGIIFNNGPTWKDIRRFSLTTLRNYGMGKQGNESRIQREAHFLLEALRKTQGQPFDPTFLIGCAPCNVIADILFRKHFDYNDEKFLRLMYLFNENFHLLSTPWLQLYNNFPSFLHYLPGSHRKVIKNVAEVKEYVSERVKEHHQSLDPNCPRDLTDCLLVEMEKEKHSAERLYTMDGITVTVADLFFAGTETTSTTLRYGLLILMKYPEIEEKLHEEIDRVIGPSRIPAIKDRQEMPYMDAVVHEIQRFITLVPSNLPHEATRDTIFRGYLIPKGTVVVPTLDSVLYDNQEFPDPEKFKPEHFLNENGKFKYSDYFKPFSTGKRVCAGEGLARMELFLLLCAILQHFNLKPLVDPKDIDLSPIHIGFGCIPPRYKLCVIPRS
UniProt P11712, whole entry: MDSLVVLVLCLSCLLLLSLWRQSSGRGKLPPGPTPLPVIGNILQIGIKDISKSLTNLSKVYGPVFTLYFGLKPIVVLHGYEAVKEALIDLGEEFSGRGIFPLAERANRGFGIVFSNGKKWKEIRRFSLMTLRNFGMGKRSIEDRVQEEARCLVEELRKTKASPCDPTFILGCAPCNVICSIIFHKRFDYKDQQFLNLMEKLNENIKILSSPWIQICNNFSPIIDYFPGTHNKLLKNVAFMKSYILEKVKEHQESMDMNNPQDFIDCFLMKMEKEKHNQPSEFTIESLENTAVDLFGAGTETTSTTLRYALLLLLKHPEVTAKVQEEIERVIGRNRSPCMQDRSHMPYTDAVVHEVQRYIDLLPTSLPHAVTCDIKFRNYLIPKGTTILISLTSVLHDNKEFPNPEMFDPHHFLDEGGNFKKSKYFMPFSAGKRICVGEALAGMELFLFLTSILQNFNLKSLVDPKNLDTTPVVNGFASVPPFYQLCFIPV

One data set addresses CYP2B6 (Homo sapiens, UniProt P20813). Nature of the data set: IC50 shift study. The data set is classed as in vitro ADME. Conditions: IC50 minus NADPH/IC50 plus NADPH.
The target of the next data set is CYP2E1 (Homo sapiens, UniProt P05181). Nature of the data set: IC50 shift study. It counts as in vitro ADME. Conditions: IC50 minus NADPH/IC50 plus NADPH.
The target of data set [1] is T1, CYP2C9 (Homo sapiens, UniProt P11712). The following applies: IC50 minus NADPH/IC50 plus NADPH.
The target in data set [2] is T1, CYP2C9. Nature of the data set: biochemical.
Data set [3] deals with T1, CYP2C9. Nature of the data set: biochemical. The source holds these as a separate data set.
In data set [4] the target is T1, CYP2C9. Nature of the data set: biochemical. The source holds these as a separate data set.

Each structure is given as a SMILES string.

Consider `CCCCCc1cc(O)c2c(c1)OC(C)(C)c1ccc(C)cc1-2` [CBN, cannabinol], for which the Shift is listed as 1.1 ± 0.061 at CYP2B6, 1.2 ± 0.16 on CYP2E1 and 1.1 ± 0.11 on CYP2C9 [1]. Also, the IC50 was found to be 1400 ± 440 nM against CYP2C9 [2] (IC50); 420 ± 130 nM at CYP2C9 [2] (IC50,u); 2900 ± 510 nM against CYP2C9 [3] (IC50); 1510 ± 270 nM on CYP2C9 [3] (IC50,u); 2700 ± 2100 nM on CYP2C9 [4] (IC50 (+)); 3000 ± 2200 nM on CYP2C9 [4] (IC50 (−)). In addition, the Ki at CYP2C9 [2] (Ki) stood at 1000 ± 190 nM; on CYP2C9 [2] (Ki,u), 300 ± 57 nM; at CYP2C9 [3] (Ki) it was 1900 ± 1300 nM; on CYP2C9 [3] (Ki,u), 990 ± 680 nM.
